{"source": "patent US4797280A", "about": "“Antibiotics produced by Kibdelosporangium aridum Shearer gen. nov., sp. nov. ATCC 39323” (SmithKline Beckman Corporation, priority 1986, dated 1989)", "tested_on": "rumen inoculum", "experiment": "Rumen in vitro model", "design": "species or system steer"}
{"smiles": "CCCCCCCCCC(=O)N[C@H]1[C@H](Oc2c3cc4cc2Oc2c(Cl)cc(cc2Cl)[C@@H](O)[C@@H]2NC(=O)[C@H](NC(=O)[C@@H]4NC(=O)[C@H]4NC(=O)[C@H](NC(=O)[C@H](NC)c5ccc(O)c(c5)Oc5cc(O)c(Cl)c4c5)[C@H](O)c4ccc(c(Cl)c4)O3)c3ccc(O)c(c3)-c3c(O[C@H]4O[C@H](CO)[C@@H](O)[C@H](O)[C@@H]4O)cc(O)cc3[C@@H](C(=O)O)NC2=O)O[C@H](C(=O)O)[C@@H](O)[C@@H]1O", "note": "[AAD 216A]", "values": [{"measurement": "VAL", "setting": "0.5 ppm", "value": 92, "unit": "% OF CONTROL"}, {"measurement": "Propionate production in the rumen", "setting": "5 and 50 ppm", "value": "increase propionate production"}, {"measurement": "VAL", "setting": "5 ppm", "value": 105, "unit": "% OF CONTROL"}]}
